# Permeability data for macrocyclic peptides

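The data file gives no further conditions (lipid, pH, time, direction or concentration), and values from different papers need not be comparable. The list need not hold all peptides of the study. Peptides that the database sets to -10, its floor, are left out.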

PAMPA is the parallel artificial membrane permeability assay, which has no cells and reads passive diffusion. P is given in units of 10^-6 cm/s (from log10 values with two decimals); larger means faster passage.

structure (SMILES) | PAMPA (10^-6 cm/s)
CC(=O)N1CCC[C@@H]1C(=O)N(C)[C@H](CC(C)C)C(=O)N[C@@H]1C(=O)N[C@H](CC(C)C)C(=O)N(C)[C@H](CC(C)C)C(=O)N[C@@H](CC(C)C)C(=O)N[C@@H](C)C(=O)N[C@H](CC(C)C)C(=O)N2CCC[C@@H]2C(=O)O[C@@H]1C | 1.2
CC(=O)N1CCC[C@@H]1C(=O)N(C)[C@H](CC(C)C)C(=O)N[C@@H]1C(=O)N(C)[C@H](CC(C)C)C(=O)N[C@@H](CC(C)C)C(=O)N(C)[C@@H](CC(C)C)C(=O)N(C)[C@@H](C)C(=O)N[C@H](CC(C)C)C(=O)N2CCC[C@@H]2C(=O)O[C@@H]1C | 0.98
CC(=O)N1CCC[C@@H]1C(=O)N(C)[C@H](CC(C)C)C(=O)N[C@@H]1C(=O)N(C)[C@H](CC(C)C)C(=O)N(C)[C@@H](CC(C)C)C(=O)N(C)[C@@H](CC(C)C)C(=O)N(C)[C@H](C)C(=O)N[C@H](CC(C)C)C(=O)N2CCC[C@@H]2C(=O)O[C@@H]1C | 1.7
CC(=O)N1CCC[C@H]1C(=O)N(C)[C@H](CC(C)C)C(=O)N[C@@H]1C(=O)N(C)[C@@H](CC(C)C)C(=O)N[C@H](CC(C)C)C(=O)N(C)[C@@H](CC(C)C)C(=O)N(C)[C@@H](C)C(=O)N[C@@H](CC(C)C)C(=O)N2CCC[C@@H]2C(=O)O[C@@H]1C | 2.8
CC(=O)N1CCC[C@H]1C(=O)N(C)[C@H](CC(C)C)C(=O)N[C@@H]1C(=O)N[C@H](CC(C)C)C(=O)N[C@@H](CC(C)C)C(=O)N[C@H](CC(C)C)C(=O)N(C)[C@H](C)C(=O)N[C@@H](CC(C)C)C(=O)N2CCC[C@H]2C(=O)O[C@@H]1C | 4.6
CC(=O)N1CCC[C@H]1C(=O)N(C)[C@@H](CC(C)C)C(=O)N[C@@H]1C(=O)N(C)[C@H](CC(C)C)C(=O)N(C)[C@@H](CC(C)C)C(=O)N[C@H](CC(C)C)C(=O)N[C@@H](C)C(=O)N[C@H](CC(C)C)C(=O)N2CCC[C@@H]2C(=O)O[C@@H]1C | 0.4
CC(=O)N1CCC[C@H]1C(=O)N(C)[C@H](CC(C)C)C(=O)N[C@@H]1C(=O)N(C)[C@H](CC(C)C)C(=O)N[C@H](CC(C)C)C(=O)N(C)[C@H](CC(C)C)C(=O)N(C)[C@H](C)C(=O)N[C@@H](CC(C)C)C(=O)N2CCC[C@H]2C(=O)O[C@@H]1C | 7.9
CC(=O)N1CCC[C@H]1C(=O)N(C)[C@H](CC(C)C)C(=O)N[C@@H]1C(=O)N[C@@H](CC(C)C)C(=O)N[C@H](CC(C)C)C(=O)N(C)[C@H](CC(C)C)C(=O)N[C@@H](C)C(=O)N[C@@H](CC(C)C)C(=O)N2CCC[C@@H]2C(=O)O[C@@H]1C | 0.58
CC(=O)N1CCC[C@@H]1C(=O)N(C)[C@H](CC(C)C)C(=O)N[C@@H]1C(=O)N(C)[C@@H](CC(C)C)C(=O)N(C)[C@H](CC(C)C)C(=O)N(C)[C@@H](CC(C)C)C(=O)N(C)[C@@H](C)C(=O)N[C@H](CC(C)C)C(=O)N2CCC[C@H]2C(=O)O[C@@H]1C | 6.5
CC(=O)N1CCC[C@H]1C(=O)N(C)[C@H](CC(C)C)C(=O)N[C@@H]1C(=O)N(C)[C@H](CC(C)C)C(=O)N(C)[C@@H](CC(C)C)C(=O)N(C)[C@@H](CC(C)C)C(=O)N[C@@H](C)C(=O)N[C@H](CC(C)C)C(=O)N2CCC[C@H]2C(=O)O[C@@H]1C | 6
CC(=O)N1CCC[C@@H]1C(=O)N(C)[C@@H](CC(C)C)C(=O)N[C@@H]1C(=O)N[C@H](CC(C)C)C(=O)N[C@@H](CC(C)C)C(=O)N(C)[C@H](CC(C)C)C(=O)N(C)[C@H](C)C(=O)N[C@@H](CC(C)C)C(=O)N2CCC[C@@H]2C(=O)O[C@@H]1C | 2.7
CC(=O)N1CCC[C@H]1C(=O)N(C)[C@@H](CC(C)C)C(=O)N[C@@H]1C(=O)N(C)[C@@H](CC(C)C)C(=O)N[C@@H](CC(C)C)C(=O)N(C)[C@@H](CC(C)C)C(=O)N(C)[C@@H](C)C(=O)N[C@H](CC(C)C)C(=O)N2CCC[C@@H]2C(=O)O[C@@H]1C | 0.5
CC(=O)N1CCC[C@H]1C(=O)N(C)[C@H](CC(C)C)C(=O)N[C@@H]1C(=O)N[C@@H](CC(C)C)C(=O)N[C@@H](CC(C)C)C(=O)N[C@@H](CC(C)C)C(=O)N[C@@H](C)C(=O)N[C@H](CC(C)C)C(=O)N2CCC[C@H]2C(=O)O[C@@H]1C | 0.32
CC(=O)N1CCC[C@@H]1C(=O)N(C)[C@@H](CC(C)C)C(=O)N[C@@H]1C(=O)N(C)[C@@H](CC(C)C)C(=O)N[C@@H](CC(C)C)C(=O)N(C)[C@@H](CC(C)C)C(=O)N(C)[C@H](C)C(=O)N[C@H](CC(C)C)C(=O)N2CCC[C@H]2C(=O)O[C@@H]1C | 0.71
CC(=O)N1CCC[C@@H]1C(=O)N(C)[C@H](CC(C)C)C(=O)N[C@@H]1C(=O)N[C@H](CC(C)C)C(=O)N(C)[C@@H](CC(C)C)C(=O)N(C)[C@@H](CC(C)C)C(=O)N[C@@H](C)C(=O)N[C@H](CC(C)C)C(=O)N2CCC[C@H]2C(=O)O[C@@H]1C | 2.3

2 of these entries, quoted again:

{"smiles": "CC(=O)N1CCC[C@@H]1C(=O)N(C)[C@H](CC(C)C)C(=O)N[C@@H]1C(=O)N[C@H](CC(C)C)C(=O)N(C)[C@@H](CC(C)C)C(=O)N(C)[C@@H](CC(C)C)C(=O)N[C@@H](C)C(=O)N[C@H](CC(C)C)C(=O)N2CCC[C@H]2C(=O)O[C@@H]1C", "PAMPA (10^-6 cm/s)": "2.3"}
{"smiles": "CC(=O)N1CCC[C@@H]1C(=O)N(C)[C@H](CC(C)C)C(=O)N[C@@H]1C(=O)N[C@H](CC(C)C)C(=O)N(C)[C@H](CC(C)C)C(=O)N[C@@H](CC(C)C)C(=O)N[C@@H](C)C(=O)N[C@H](CC(C)C)C(=O)N2CCC[C@@H]2C(=O)O[C@@H]1C", "PAMPA (10^-6 cm/s)": "1.2"}

Data: CycPeptMPDB; original report Kelly et al. 2021, doi:10.1021/jacs.0c06115.